US20190309272A1, “Genetically Modified Cell Lines Including a TP53 Modification and Methods of Use” (UNIVERSITY OF SOUTH CAROLINA, priority 2018, published 2019)

Tests used:
Format in all cases: cell-based, Human
MCF7 TP53 KO 3.4 pool = test: Drug screening, resazurin, TP53 KO 3.4 pool; details: ten-day drug treatment, 156.25 nM to 10 μM, resazurin fluorescence
MCF7 TP53 KO 5.6 pool = test: Drug screening, resazurin, TP53 KO 5.6 pool
MCF7 TP53 KO 34 B5 = test: Drug treatment of single cell clone KO 34 B5; details: ten day drug treatment; note: unit not given here
MCF7 TP53 KO 34 E1 = test: Drug treatment of single cell clone KO 34 E1; details: ten day drug treatment
MCF7 TP53 KO 56 A5 = test: Drug treatment of single cell clone KO 56 A5; details: ten day drug treatment
MCF7 TP53 KO 56 A6 = test: Drug treatment of single cell clone KO 56 A6; details: ten day drug treatment
MCF7 TP53 KO 56 A7 = test: Drug treatment of single cell clone KO 56 A7; details: ten day drug treatment; note: unit not given here
MCF7 TP53 KO 56 E3 = test: Drug treatment of single cell clone KO 56 E3; details: ten day drug treatment

Nutlin3
TP53 KO 3.4 pool (AUC) (MCF7 TP53 KO 3.4 pool): 9.455
area under the curve (AUC) (MCF7 TP53 KO 5.6 pool; KO 56 Pool, ten day drug treatment (Table 3)): 1.374
TP53 KO 5.6 pool (AUC) (MCF7 TP53 KO 5.6 pool; ten-day drug treatment, 156.25 nM to 10 μM, resazurin fluorescence): 8.605
area under the curve (AUC) (MCF7 TP53 KO 34 B5): 1.234
area under the curve (AUC) (MCF7 TP53 KO 34 E1): 1.538
area under the curve (AUC) (MCF7 TP53 KO 56 A5): 1.595
area under the curve (AUC) (MCF7 TP53 KO 56 A6): 1.512
area under the curve (AUC) (MCF7 TP53 KO 56 A7): 1.761
area under the curve (AUC) (MCF7 TP53 KO 56 E3): 1.564
